From patent EP2397149A1 (Hil-Invent Ges.M.B.H., priority 2010, dated 2011)

Columns and labels:
[1] = system: engrafted CLL mice (CD5/CD19 cells); assay: Treatment study 02: reduced actinomycin D concentrations in murine B-CLL model; format: in vivo; conditions: after three rounds of treatment
Procedure: (§1) The original Eµ-TCL1a transgenic mice which were generously provided by C. Croce (Ohio) have been back-crossed for > 9 generations to C57BL/6 mice. Mice were killed at stated ages, or when signs of illness developed, and samples for histology, flow cytometry, and miRNA isolation were collected. The tumor load in all lymphoid organs was assessed by flow cytometry following staining for the surface markers CD19, CD5, and IgM. Approval from the Austrian Animal Ethics committee was obtained prior to performing the experiments. Engrafted mice were produced by injecting 3 x 10^6 lymphocytes of a leukemic Eµ-TCL1a transgenic mouse into 30 Black 6 mice from Charles River Laboratories, Sulzfeld, Germany.
In example 1 a treatment schedule of 0.06 mg/kg daily for two weeks was used. […] To assess the tumour load blood samples were consecutively taken from the tail vein.

[2] = system: engrafted B-CLL mice (CD5/CD19 cells); conditions: after third treatment cycle
Procedure: as §1
First a treatment study included 10 mice.
To assess tumour load development after treatment blood samples were collected from the tail vein (Fig. 4).

For Cc1c2oc3c(C)ccc(C(=O)N[C@@H]4C(=O)N[C@H](C(C)C)C(=O)N5CCC[C@H]5C(=O)N(C)CC(=O)N(C)[C@@H](C(C)C)C(=O)O[C@@H]4C)c3nc-2c(C(=O)N[C@@H]2C(=O)N[C@H](C(C)C)C(=O)N3CCC[C@H]3C(=O)N(C)CC(=O)N(C)[C@@H](C(C)C)C(=O)O[C@@H]2C)c(N)c1=O [actinomycin D], the resistance development [1] was “no resistance development could be observed” and the resistance development [2] was “no development of resistance”.
